Literature values, collected in US11369615B2, “Agent for improving mitochondrial dysfunction, preventative or therapeutic agent for diseases or symptoms caused by mitochondrial dysfunction, and applications therefor” (JICHI MEDICAL UNIVERSITY, priority 2017, dated 2022).

Conditions: stated as known; cited from earlier work

Cc1cc2c(s1)Nc1ccccc1N=C2N1CCN(C)CC1 [(I-3)]
ability to pass through the blood-brain barrier: known to be able to pass through the blood-brain barrier
